The text below walks through data of patent US8207190B2, “Enantiomer of tenatoprazole and the use thereof in therapy” (Mitsubishi Tanabe Pharma Corporation, priority 2003, dated 2012).

This series concerns CYP2C19 and CYP3A4. The series can be described thus: metabolic pathways of the tenatoprazole isomers. Conditions: cytochrome pathways that metabolise the isomer.

Regarding `COc1ccc2[nH]c([S+]([O-])Cc3ncc(C)c(OC)c3C)nc2n1` (single isomer, unassigned; (+)) [(+) form], the metabolic pathway result is “one preponderant pathway, CYP2C19”.
As for `COc1ccc2[nH]c([S+]([O-])Cc3ncc(C)c(OC)c3C)nc2n1` (single isomer, unassigned; (-)) [(−) enantiomer], the entry is “two pathways, i.e. CYP2C19 and CYP3A4”.
